Measurements as given in US11352330B2, “Phenoxymethyl derivatives” (Hoffmann-La Roche Inc., priority 2015, dated 2022).

Target: human ATX (Homo sapiens (Human), UniProt Q13822)
Test: Human ATX enzyme inhibition assay (fluorescence quenching, MR121 substrate)
Settings: read-out: ATX Ic50; human His-tagged ATX 30 nM, MR121 substrate 1 μM, 30° C.
Experimental: Human ATX Enzyme Inhibition Assay
ATX inhibition was measured by a fluorescence quenching assay using a specifically labeled substrate analogue (MR121 substrate). To obtain this MR121 substrate, BOC and TBS protected 6-amino-hexanoic acid (R)-3-({2-[3-(2-{2-[2-(2-amino-ethoxy)-ethoxy]-ethoxy}-ethoxy)-propionylamino]-ethoxy}-hydroxy-phosphoryloxy)-2-hydroxy-propyl ester (Ferguson et al., Org Lett 2006, 8 (10), 2023) was labeled with MR121 fluorophore (CAS 185308-24-1, 1-(3-carboxypropyl)-11-ethyl-1,2,3,4,8,9,10,11-octahydro-dipyrido[3,2-b:2′,3′-i]phenoxazin-13-ium) on the free amine of the ethanolamine side and then, after deprotection, subsequently with tryptophan on the side of the aminohexanoic acid.
Assay working solutions were made as follows:
Assay buffer (50 mM Tris-HCl, 140 mM NaCl, 5 mM KCl, 1 mM CaCl2, 1 mM MgCl2, 0.01% Triton-X-100, pH 8.0;
ATX solution: ATX (human His-tagged) stock solution (1.08 mg/mL in 20 mM bicine, pH 8.5, 0.15 M NaCl, 10% glycerol, 0.3% CHAPS, 0.02% NaN3), diluted to 1.4-2.5× final concentration in assay buffer;
MR121 substrate solution: MR121 substrate stock solution (800 μM MR121 substrate in DMSO), diluted to 2-5× final concentration in assay buffer.
Test compounds (10 mM stock in DMSO, 8 μL) were obtained in 384 well sample plates (Corning Costar #3655) and diluted with 8 μL DMSO. […]

pIC50: 8.70
SMILES: Cn1c(COc2ccc(C#N)cc2C(C)(C)C)n[nH]c1=O

pIC50: −log10 of the molar value.
